# Measured values as given in PubChem BioAssay AID485273 (Sanford-Burnham Center for Chemical Genomics, 2010).
# Protein sequences, listed by entry. Tags and fused reporters are not part of them.
# UniProt P61088, whole entry, looked up: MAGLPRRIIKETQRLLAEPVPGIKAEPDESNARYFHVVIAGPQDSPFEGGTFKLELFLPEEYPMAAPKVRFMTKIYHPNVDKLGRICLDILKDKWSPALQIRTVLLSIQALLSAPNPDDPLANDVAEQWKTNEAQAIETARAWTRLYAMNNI
# Only a part is listed here, and it is no random draw. Calls of active or inactive are those of the source. No stated cut-off is given here; in the data, active means inhibition above about 45% (passing the limit was not always enough); inconclusive means no clear call, values can overlap the other calls.
# Target: Ubiquitin-conjugating enzyme E2 N (Homo sapiens) (UniProt P61088)
# Assay: UBC13 polyubiquitin chain formation inhibitors, primary screen, biochemical, TR-FRET, uHTS (AID 485273)
# Details: at 20 µM, hits give high values
row,Structure (SMILES),inhibition
1,COc1cc(OC)cc(C(=O)NCC2(N3CCOCC3)CCCCC2)c1,inactive: -4.6%
2,COc1cccc(C(=O)N(c2cc(C)cc(C)c2)C2CCN(C(=O)OC(C)(C)C)CC2)c1,inactive: -2.8%
3,CCC(CO)(C(=O)OC1CN2CCC1CC2)c1ccccc1 (configuration not stated),inactive: -0.8%
4,CN1CCC(Nc2ccc(Cl)cc2)CC1,inactive: 2.3%
5,CCCOc1ccc(C)cc1CN(CCCl)CCCl,inactive: 20.4%
6,CCOc1ncccc1C(=O)NCC1(N2CCOCC2)CCCCC1,inactive: -7.6%
7,CN1CCC(Nc2ccc(F)c(Cl)c2)CC1,inactive: -2.4%
8,CC(C)(C)OC(=O)N1CCC(Nc2ccccc2)CC1,inactive: 4.1%
9,O=C(O)C1(Nc2ccccc2)CCN(Cc2ccccc2)CC1,inactive: -5.4%
10,CCCOc1ccc(C(=O)NCC2(N(C)C)CCCCC2)cc1,inactive: 5.7%
11,CCN1CCC(Nc2cccc(F)c2)CC1,inactive: 6.6%
12,O=C(NCC1(N2CCCCC2)CCCCC1)c1ccco1,inactive: -4.8%
13,CN(C)c1ccc(C(=O)NCC2(N3CCCCC3)CCCCC2)cc1,inactive: 2.6%
14,COc1cc(OC)cc(C(=O)NCC2(N3CCCCC3)CCCCC2)c1,inactive: 4.1%
15,Cc1ccc(C(=O)NCC2(N3CCCCC3)CCCCC2)o1,inactive: -9.3%
16,Fc1ccccc1NC1CCN(Cc2ccccc2)CC1,inactive: -3.9%
17,CN(C)C1(CNC(=O)c2cccc(C#N)c2)CCCCC1,inactive: -5.4%
18,c1ccc(CN2CCC(Nc3ccccc3)CC2)cc1,inactive: -5.1%
19,CCCN1CCC(Nc2cc(OC)cc(OC)c2)CC1,inactive: -29.4%
20,N#Cc1ccc(C(=O)NCC2(N3CCCCC3)CCCCC2)cc1,inactive: 0.6%
21,CC(C)(C)OC(=O)N1CCC(N(C(=O)c2ccccc2)c2ccc(Cl)cc2)CC1,inactive: 9.8%
22,CCOC(=O)N1CCC(Nc2ccc(C)cc2)CC1,inactive: 4.8%
23,N/C(=N\O)c1c(N)no[n+]1[O-],inactive: -3.6%

row,Structure (SMILES),inhibition
1,O=C(OC1CN2CCC1CC2)C1c2ccccc2C=Cc2ccccc21 (configuration not stated),inactive: 3.3%
2,CCc1cc(C(=O)NCC2(N3CCCCC3)CCCCC2)sc1C,inactive: 1.5%
3,COc1cc(C(=O)NCC2(N3CCOCC3)CCCCC2)cc(OC)c1C,inactive: 9.7%
4,O=C(NCC1(N2CCOCC2)CCCCC1)c1cc(Br)ccc1Cl,inactive: -8.3%
5,COc1ccc(C(=O)NCC2(N3CCOCC3)CCCCC2)cc1OC,inactive: 8.3%
6,O=C(NCC1(N2CCCCC2)CCCCC1)c1cncc(Br)c1,inactive: 3.7%
7,CN1CCC(Nc2cccc(F)c2)CC1,inactive: 16%
8,CC(C)c1ccc(NC2CCN(C(=O)OC(C)(C)C)CC2)cc1,inactive: 4.1%
9,COc1ccc(CN(CCCl)CCCl)cc1Cl,inactive: 18%
10,CN(C)c1cccc(C(=O)NCC2(N3CCCCC3)CCCCC2)c1,inactive: 4.2%
11,COc1cc(OC)c(C(=O)NCC2(N(C)C)CCCCC2)cc1OC,inactive: 1%
12,O=C(NCC1(N2CCOCC2)CCCCC1)c1cc(F)c(F)cc1Cl,inactive: -1.7%
13,O=C(NCC1(N2CCCCC2)CCCCC1)c1cccc(C(F)(F)F)c1,inactive: 7.5%
14,COc1cc(C(=O)NCC2(N3CCCCC3)CCCCC2)ccc1OC(F)F,inactive: 4.8%
15,O=C(NCC1(N2CCOCC2)CCCCC1)c1cc(=O)[nH]c2ccccc12,inactive: -12.4%
16,CN1CCN(CCOC(=O)C(O)(c2ccccc2)c2ccccc2)CC1,inactive: 7.3%
17,CC(C)c1ccc(C(=O)NCC2(N3CCOCC3)CCCCC2)cc1,inactive: -14%
18,COc1ccc(NC2CCN(C(=O)OC(C)(C)C)CC2)cc1,inactive: -4.7%
19,O=C(NCC1(N2CCCCC2)CCCCC1)c1ccc(OC(F)F)cc1,inactive: -5.2%
20,CCN1CCC(Nc2ccc(Cl)cc2)CC1,inactive: 2.3%
21,N#CC1(Nc2ccccc2)CCN(CCc2ccccc2)CC1,inactive: 7.8%
22,O=C(NCC1(N2CCCCC2)CCCCC1)c1cccc([N+](=O)[O-])c1,inactive: 6.7%
23,CSc1ccc(C(=O)NCC2(N3CCOCC3)CCCCC2)cc1,inactive: 1%

row,Structure (SMILES),inhibition
1,CCOC(=O)N1CCC(Nc2cccc(C)c2)CC1,inactive: -6.9%
2,Cc1ccc(OCC(C)C)c(CN(CCCl)CCCl)c1,inactive: 19.7%
3,CCOc1ccc(C)cc1CN(CCCl)CCCl,inactive: 19.2%
4,O=C(NCC1(N2CCCCC2)CCCCC1)c1ccc(F)cc1,inactive: -14.3%
5,CCCCOc1ccc(C(=O)NCC2(N3CCOCC3)CCCCC2)cc1,inactive: -11.9%
6,COc1ccc(NC2CCN(CCc3ccccc3)CC2)c(OC)c1,inactive: -7.8%
7,CCOC(=O)N1CCC(Nc2ccc(F)cc2)CC1,inactive: -7%
8,O=C(NCC1(N2CCCCC2)CCCCC1)c1ccc(Cl)nc1,inactive: -1.5%
9,Cc1cc(C)cc(N(C(=O)c2ccccc2)C2CCN(C(=O)OC(C)(C)C)CC2)c1,inactive: 3.4%
10,O=C(NCC1(N2CCOCC2)CCCCC1)c1cc2ccccc2o1,inactive: 3.8%
11,O=C(OC1CN2CCC1CC2)C1c2ccccc2Oc2ccccc21 (configuration not stated),inactive: -5.2%
12,O=C(NCC1(N2CCCCC2)CCCCC1)c1ccc(Cl)s1,inactive: 9.6%
13,N#CC1(Nc2ccccc2)CCN(Cc2ccccc2)CC1,inactive: 1.7%
14,COc1ccc(Cl)cc1C(=O)NCC1(N2CCOCC2)CCCCC1,inactive: 1.9%
15,CCOC(=O)N1CCC(Nc2ccc(OC)cc2)CC1,inactive: -9.4%
16,COc1ccc(C(=O)NCC2(N3CCCCC3)CCCCC2)cc1,inactive: 4.1%
17,CC(C)(C)OC(=O)N1CCC(N(C(=O)c2ccccc2)c2ccc(F)cc2)CC1,inactive: 6.8%
18,COc1ccc(C(=O)NCC2(N3CCCCC3)CCCCC2)c(OC)c1OC,inactive: -1.3%
19,O=C(NCC1(N2CCCCC2)CCCCC1)c1ccc(=O)[nH]c1,inactive: 1.7%
20,O=C(NCC1(N2CCCCC2)CCCCC1)c1cccs1,inactive: 10.4%
21,CSc1ccccc1C(=O)NCC1(N2CCCCC2)CCCCC1,inactive: -0.5%
